Chains of the proteins cited; added tags and fusions are not shown. Lines headed by an entry give the natural chain unless they say otherwise; changes in a name come on top.
UniProt P54646: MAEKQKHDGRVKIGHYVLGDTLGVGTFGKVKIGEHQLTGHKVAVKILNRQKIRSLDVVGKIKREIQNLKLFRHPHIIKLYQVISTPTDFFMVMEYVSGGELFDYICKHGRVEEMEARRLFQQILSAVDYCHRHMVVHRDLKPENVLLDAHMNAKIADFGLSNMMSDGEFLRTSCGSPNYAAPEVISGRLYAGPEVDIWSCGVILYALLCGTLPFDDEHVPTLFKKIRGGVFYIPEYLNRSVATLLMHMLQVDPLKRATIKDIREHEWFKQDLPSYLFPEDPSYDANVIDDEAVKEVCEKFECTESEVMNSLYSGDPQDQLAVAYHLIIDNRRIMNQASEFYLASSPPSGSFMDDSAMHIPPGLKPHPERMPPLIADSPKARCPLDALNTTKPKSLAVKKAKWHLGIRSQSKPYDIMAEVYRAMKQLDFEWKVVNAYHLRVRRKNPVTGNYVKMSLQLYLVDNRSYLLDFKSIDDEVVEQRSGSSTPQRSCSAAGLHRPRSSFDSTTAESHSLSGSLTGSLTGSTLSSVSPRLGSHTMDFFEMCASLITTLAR
UniProt Q8NI60: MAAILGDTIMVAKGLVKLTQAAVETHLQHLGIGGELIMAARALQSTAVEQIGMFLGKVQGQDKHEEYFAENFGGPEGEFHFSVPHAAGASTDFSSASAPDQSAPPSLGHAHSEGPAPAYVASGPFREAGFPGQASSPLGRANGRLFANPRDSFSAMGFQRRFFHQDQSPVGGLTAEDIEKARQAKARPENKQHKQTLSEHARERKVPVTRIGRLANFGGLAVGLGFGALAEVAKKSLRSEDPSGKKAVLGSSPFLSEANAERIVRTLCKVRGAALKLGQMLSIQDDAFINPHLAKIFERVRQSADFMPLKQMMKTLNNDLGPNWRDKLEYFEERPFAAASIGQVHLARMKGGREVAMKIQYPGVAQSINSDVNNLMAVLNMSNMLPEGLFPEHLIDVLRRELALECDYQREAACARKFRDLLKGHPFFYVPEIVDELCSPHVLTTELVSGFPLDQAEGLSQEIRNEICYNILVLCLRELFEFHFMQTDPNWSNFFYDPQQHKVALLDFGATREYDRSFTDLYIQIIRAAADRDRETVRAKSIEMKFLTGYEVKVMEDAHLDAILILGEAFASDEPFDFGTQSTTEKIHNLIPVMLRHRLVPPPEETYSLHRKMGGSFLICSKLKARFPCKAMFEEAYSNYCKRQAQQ
UniProt Q5TCX8: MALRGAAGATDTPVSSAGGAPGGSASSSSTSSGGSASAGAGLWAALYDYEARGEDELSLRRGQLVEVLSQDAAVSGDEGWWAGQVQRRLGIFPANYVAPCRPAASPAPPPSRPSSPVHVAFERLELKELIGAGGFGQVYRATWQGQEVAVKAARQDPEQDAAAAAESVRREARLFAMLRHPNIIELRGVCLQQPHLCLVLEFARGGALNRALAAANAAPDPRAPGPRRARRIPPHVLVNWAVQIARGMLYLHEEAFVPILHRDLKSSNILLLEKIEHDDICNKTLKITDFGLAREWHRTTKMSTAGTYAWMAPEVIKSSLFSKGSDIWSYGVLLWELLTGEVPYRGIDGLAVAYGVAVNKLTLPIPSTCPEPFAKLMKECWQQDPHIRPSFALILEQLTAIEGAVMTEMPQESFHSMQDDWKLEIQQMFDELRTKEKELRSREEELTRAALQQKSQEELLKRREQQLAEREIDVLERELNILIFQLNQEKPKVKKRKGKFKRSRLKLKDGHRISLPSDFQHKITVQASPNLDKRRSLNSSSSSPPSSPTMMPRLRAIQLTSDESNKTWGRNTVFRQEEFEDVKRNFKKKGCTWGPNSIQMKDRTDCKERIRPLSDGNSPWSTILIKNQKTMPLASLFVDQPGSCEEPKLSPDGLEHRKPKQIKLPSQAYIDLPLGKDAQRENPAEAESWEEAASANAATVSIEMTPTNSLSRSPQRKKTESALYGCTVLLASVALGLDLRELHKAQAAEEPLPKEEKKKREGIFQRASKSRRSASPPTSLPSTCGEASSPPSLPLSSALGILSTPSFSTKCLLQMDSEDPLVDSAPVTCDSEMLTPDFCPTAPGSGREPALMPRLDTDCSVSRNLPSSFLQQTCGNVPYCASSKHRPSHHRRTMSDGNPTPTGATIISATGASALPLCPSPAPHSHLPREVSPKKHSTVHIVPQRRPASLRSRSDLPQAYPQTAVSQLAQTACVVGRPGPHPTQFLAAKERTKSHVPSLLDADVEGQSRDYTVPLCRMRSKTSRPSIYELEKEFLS
UniProt Q06187: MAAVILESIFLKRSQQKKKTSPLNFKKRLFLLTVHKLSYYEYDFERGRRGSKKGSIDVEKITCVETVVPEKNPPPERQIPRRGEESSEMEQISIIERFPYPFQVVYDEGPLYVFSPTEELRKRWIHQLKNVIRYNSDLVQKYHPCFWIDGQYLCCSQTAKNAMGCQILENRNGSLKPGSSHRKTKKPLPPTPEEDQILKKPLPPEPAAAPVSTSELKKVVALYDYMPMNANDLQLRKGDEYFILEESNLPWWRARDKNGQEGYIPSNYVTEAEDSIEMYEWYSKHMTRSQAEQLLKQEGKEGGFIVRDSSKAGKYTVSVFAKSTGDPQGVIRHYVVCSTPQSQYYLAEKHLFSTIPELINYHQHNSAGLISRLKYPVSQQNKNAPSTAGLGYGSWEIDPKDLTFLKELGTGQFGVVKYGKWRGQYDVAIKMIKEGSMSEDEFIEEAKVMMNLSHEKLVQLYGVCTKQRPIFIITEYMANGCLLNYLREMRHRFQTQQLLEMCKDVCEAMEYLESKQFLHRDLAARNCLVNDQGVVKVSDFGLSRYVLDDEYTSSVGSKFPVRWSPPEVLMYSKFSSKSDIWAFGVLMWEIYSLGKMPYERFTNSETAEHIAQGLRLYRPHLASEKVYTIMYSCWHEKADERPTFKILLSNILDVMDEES
UniProt Q04759: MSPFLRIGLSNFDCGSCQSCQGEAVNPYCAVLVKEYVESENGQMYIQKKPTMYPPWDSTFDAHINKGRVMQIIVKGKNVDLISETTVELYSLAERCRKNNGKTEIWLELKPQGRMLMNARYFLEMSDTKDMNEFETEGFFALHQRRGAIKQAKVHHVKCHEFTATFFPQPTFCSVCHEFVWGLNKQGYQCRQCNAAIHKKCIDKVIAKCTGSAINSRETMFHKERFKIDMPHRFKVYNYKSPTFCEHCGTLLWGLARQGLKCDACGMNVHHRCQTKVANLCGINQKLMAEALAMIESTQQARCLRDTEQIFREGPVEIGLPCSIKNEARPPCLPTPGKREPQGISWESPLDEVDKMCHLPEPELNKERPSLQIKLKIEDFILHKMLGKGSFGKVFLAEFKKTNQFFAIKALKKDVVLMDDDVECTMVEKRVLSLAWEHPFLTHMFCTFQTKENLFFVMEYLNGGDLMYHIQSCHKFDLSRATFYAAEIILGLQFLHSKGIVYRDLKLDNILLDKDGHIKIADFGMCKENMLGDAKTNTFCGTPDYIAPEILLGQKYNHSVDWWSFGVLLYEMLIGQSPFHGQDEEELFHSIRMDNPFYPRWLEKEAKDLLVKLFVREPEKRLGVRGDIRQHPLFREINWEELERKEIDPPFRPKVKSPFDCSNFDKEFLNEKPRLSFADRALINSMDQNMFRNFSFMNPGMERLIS
UniProt Q9P0L2: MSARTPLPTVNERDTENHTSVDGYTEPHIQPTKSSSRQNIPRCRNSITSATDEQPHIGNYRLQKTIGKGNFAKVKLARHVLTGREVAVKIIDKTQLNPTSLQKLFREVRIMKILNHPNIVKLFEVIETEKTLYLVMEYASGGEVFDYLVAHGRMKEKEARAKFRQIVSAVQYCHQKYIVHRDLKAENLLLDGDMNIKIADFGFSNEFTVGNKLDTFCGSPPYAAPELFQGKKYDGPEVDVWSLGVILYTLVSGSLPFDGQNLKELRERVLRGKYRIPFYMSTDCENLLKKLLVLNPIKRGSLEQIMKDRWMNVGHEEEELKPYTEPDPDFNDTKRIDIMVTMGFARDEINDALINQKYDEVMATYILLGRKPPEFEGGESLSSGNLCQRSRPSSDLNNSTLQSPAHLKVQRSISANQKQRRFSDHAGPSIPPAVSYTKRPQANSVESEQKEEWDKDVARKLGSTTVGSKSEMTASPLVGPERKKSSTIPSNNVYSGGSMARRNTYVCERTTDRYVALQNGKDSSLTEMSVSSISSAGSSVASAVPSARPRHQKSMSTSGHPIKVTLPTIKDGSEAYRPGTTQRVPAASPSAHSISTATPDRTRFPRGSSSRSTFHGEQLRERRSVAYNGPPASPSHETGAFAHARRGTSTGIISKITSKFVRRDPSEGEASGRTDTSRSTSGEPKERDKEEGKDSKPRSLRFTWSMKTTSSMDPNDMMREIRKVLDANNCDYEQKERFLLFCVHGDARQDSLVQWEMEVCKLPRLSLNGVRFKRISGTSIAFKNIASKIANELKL
UniProt Q9NSY1, whole entry, looked up: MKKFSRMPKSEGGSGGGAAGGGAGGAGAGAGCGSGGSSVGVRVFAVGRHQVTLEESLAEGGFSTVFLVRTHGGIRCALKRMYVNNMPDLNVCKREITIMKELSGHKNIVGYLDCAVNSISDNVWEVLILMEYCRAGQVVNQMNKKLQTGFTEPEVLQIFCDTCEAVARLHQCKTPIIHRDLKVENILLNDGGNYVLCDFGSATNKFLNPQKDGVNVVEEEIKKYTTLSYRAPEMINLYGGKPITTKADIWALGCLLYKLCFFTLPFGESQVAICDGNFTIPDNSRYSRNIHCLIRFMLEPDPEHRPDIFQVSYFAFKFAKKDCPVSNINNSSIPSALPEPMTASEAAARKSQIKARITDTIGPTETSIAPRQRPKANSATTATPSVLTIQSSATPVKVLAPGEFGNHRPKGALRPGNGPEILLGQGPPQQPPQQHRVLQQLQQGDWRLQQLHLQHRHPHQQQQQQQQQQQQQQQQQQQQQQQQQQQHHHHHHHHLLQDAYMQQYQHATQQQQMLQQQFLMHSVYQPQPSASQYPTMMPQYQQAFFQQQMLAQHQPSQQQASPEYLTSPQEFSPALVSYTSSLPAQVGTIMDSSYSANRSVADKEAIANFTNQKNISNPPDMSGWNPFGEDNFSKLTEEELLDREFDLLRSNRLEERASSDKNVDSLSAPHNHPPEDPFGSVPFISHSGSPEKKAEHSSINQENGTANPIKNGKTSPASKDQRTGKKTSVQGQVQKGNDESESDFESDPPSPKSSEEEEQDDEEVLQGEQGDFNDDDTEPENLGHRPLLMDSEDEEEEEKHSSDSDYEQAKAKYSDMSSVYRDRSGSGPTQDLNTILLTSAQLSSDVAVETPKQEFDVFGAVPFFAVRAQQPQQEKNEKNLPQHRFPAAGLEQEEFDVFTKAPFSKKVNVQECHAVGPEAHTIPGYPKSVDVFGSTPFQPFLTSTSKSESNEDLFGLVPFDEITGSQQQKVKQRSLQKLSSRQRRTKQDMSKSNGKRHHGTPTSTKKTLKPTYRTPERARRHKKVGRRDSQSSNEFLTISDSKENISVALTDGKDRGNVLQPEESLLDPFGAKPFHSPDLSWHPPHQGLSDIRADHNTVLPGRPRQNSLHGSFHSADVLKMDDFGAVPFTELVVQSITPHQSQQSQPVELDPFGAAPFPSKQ

According to the supplement of paper PMC11403291:

Key:
Experiment in all cases: apparent dissociation constant pKd app (kinobead competition) (-log10(M)); higher = stronger binding
PRKAA2 = PRKAA2 (UniProt P54646)
CABC1 = CABC1 (UniProt Q8NI60)
DDR2 = target: T1, DDR2 (UniProt Q16832)
T1 sequence (whole entry): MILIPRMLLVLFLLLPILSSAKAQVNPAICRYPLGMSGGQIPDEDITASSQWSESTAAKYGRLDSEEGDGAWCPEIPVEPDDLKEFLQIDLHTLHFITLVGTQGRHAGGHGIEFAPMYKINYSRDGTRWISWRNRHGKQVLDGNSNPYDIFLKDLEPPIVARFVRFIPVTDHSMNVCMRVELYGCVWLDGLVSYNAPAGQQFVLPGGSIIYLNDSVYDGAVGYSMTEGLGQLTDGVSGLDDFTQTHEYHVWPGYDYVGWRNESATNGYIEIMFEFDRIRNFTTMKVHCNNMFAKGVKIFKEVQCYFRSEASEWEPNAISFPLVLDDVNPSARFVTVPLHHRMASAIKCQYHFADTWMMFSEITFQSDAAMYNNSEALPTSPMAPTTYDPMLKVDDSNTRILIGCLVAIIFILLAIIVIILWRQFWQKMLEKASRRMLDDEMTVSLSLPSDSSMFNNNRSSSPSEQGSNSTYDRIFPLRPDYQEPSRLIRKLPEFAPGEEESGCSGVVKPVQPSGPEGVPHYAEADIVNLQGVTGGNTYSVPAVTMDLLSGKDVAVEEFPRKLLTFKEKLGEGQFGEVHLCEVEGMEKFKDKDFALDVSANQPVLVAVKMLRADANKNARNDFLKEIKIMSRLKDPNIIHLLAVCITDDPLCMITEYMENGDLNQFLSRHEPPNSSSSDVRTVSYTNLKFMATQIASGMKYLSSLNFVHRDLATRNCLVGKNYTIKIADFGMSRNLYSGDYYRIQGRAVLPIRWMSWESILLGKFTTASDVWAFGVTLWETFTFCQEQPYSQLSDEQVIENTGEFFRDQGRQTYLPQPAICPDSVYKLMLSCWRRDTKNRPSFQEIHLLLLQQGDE

KIAA1804 = KIAA1804 (UniProt Q5TCX8)
MAP3K7 = target: T2, MAP3K7 (UniProt O43318)
T2 sequence (whole entry): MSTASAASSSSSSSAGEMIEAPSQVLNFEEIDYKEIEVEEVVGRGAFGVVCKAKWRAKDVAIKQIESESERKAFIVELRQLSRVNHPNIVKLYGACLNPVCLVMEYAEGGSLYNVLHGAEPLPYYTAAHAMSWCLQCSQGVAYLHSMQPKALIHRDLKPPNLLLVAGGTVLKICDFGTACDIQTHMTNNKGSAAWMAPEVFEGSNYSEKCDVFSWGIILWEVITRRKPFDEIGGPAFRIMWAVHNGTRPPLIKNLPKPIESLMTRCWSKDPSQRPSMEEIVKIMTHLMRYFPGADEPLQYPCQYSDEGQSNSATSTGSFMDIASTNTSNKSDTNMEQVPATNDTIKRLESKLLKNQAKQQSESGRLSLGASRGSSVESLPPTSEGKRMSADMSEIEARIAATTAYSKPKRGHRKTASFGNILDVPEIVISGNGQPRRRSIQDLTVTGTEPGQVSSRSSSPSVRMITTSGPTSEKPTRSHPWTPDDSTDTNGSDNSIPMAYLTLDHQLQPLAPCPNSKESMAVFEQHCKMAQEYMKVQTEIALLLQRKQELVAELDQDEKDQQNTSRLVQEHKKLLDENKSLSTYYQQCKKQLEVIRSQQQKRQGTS

BTK = BTK (UniProt Q06187)
PRKCQ = PRKCQ (UniProt Q04759)
MARK1 = MARK1 (UniProt Q9P0L2)
ACVR1B = target: T3, ACVR1B (UniProt P36896)
T3 sequence (whole entry): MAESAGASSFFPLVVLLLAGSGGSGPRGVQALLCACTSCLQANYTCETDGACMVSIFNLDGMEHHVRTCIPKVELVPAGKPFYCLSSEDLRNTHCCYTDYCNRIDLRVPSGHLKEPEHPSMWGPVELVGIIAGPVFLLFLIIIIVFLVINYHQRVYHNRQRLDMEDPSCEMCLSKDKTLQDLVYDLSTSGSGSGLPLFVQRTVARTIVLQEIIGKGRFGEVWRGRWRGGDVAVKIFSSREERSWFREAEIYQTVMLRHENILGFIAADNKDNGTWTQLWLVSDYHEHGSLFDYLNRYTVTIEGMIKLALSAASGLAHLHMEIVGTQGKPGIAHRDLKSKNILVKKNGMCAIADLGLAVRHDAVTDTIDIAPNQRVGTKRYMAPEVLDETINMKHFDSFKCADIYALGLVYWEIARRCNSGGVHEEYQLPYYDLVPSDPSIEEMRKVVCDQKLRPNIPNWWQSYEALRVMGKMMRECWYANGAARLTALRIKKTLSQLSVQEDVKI

BMP2K = BMP2K (UniProt Q9NSY1)

| Compound | apparent dissociation constant pKd app (-log10) (PRKAA2) | apparent dissociation constant pKd app (-log10) (CABC1) | apparent dissociation constant pKd app (-log10) (DDR2) | apparent dissociation constant pKd app (-log10) (KIAA1804) | apparent dissociation constant pKd app (-log10) (MAP3K7) | apparent dissociation constant pKd app (-log10) (BTK) | apparent dissociation constant pKd app (-log10) (PRKCQ) | apparent dissociation constant pKd app (-log10) (MARK1) | apparent dissociation constant pKd app (-log10) (ACVR1B) | apparent dissociation constant pKd app (-log10) (BMP2K) |
| --- | --- | --- | --- | --- | --- | --- | --- | --- | --- | --- |
| NC(=O)c1cccc2cn(-c3ccc([C@@H]4CCCNC4)cc3)nc12 [Niraparib] | < 4.7 | < 4.6 | < 4.6 | < 4.6 | < 4.5 | < 4.7 | < 4.5 | < 4.6 | < 4.7 | < 4.8 |
| O=C(c1cc(Cc2n[nH]c(=O)c3ccccc23)ccc1F)N1CCN(C(=O)C2CC2)CC1 [Olaparib] | < 4.7 | < 4.6 | < 4.6 | < 4.6 | < 4.5 | < 4.7 | < 4.5 | < 4.6 | < 4.7 | < 4.8 |
| Cn1ncnc1[C@H]1c2n[nH]c(=O)c3cc(F)cc(c23)N[C@@H]1c1ccc(F)cc1 [Talazoparib] | < 4.7 | < 4.6 | < 4.6 | < 4.6 | < 4.5 | < 4.7 | < 4.5 | < 4.6 | < 4.7 | < 4.8 |
